According to patent publication US20250250287A1, “HETEROCYCLIC COMPOUNDS, COMPOSITIONS THEREOF, AND METHODS OF TREATMENT THEREWITH” (BeiGene Switzerland GmbH, priority 2022, published 2025):

Experiments:
[1] = tested on: pERK1/2(THR202/TYR204) level in SW620 cell line (KRAS G12V); assay: KRAS G12V pERK assay (HTRF) in SW620 cell line; conditions: read-out: SW620 pERK IC50; SW620 cells, 2 hrs compound treatment
[2] = molecular target: GST-tagged GDP-loaded WT KRAS (amino acids 1-169) (Homo sapiens, UniProt P01116); assay: KRAS WT probe displacement assay (TR-FRET, with G12V assay); conditions: read-out: KRAS^WT Probe Displacement Assay IC50; Table 2; WT KRAS 3 nM, biotinylated probe 1 60 nM

Row | SMILES | IC50 [1] [nM] | IC50 [2] [nM]
1 | C#Cc1c(F)ccc2cc(O)cc(-c3nc4c5c(nc(OC[C@@]67CCCN6C[C@H](F)C7)nc5c3F)N3CC[C@H]3CCO4)c12 | 171 | 5.3
2 | Nc1cc(Cl)c(C(F)(F)F)c(-c2nc3c4c(nc(OC[C@@]56CCCN5C[C@H](F)C6)nc4c2F)N2CCCCC2CCO3)c1 (stereo partly drawn) |  | 6.8
